Experimental data reported in patent US7541381B2, “Non-covalent inhibitors of AmpC β-lactamase” (Northwestern University, priority 2002, dated 2009).
“Also recorded” adds a separate entry of the source.

Protein sequences, listed by entry. Tags and fused reporters are not part of them. Residues count along the entry.
UniProt P00760, 24-246: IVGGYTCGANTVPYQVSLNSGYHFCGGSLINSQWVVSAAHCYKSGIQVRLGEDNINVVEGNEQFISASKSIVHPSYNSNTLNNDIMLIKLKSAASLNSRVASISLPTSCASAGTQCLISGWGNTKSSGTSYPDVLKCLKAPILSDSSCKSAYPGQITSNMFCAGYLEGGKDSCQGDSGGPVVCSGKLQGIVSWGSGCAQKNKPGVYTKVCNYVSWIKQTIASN
UniProt P00772, 27-266: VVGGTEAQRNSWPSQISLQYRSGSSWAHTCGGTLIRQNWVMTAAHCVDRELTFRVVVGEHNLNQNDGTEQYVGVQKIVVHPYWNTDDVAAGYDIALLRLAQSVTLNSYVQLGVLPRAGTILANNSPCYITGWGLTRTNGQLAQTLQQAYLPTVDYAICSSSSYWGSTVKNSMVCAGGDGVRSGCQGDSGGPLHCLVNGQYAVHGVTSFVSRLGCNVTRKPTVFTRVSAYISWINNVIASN

What was measured:
α-chymotrypsin = target: T1, α-chymotrypsin (Bos taurus, UniProt P00766); type: biochemical, bovine
T1 construct: purchased Sigma (St. Louis, Mo.); host or cells: bovine pancreas
Experimental: (§1) The substrates for α-chymotrypsin (succinyl-ala-ala-pro-phe-p-nitroanilide) and β-trypsin (N-benzoyl-L-arginine ethyl ester, BAEE) were also purchased from Sigma. The elastase substrate used (elastase substrate 1, MeOSuc-Ala-Ala-Pro-Val-pNA) was purchased from Calbiochem (San Diego, Calif.). Substrates were diluted from 10 mM DMSO stock solutions, and all reactions were performed in 50 mM TRIS buffer, pH 7.0, 25° C. For α-chymotrypsin, 200 μM of substrate was used; the reactions were initiated by addition of 10 μL of a 0.1 mg/ml enzyme stock solution and monitored at 410 nm. For β-trypsin, 200 μM of BAEE was used, the reactions were initiated by the addition of 5 μL of a 0.2 mg/ml enzyme stock solution, and monitored at 260 nm. For elastase, 640 μM of elastase substrate was used, the reactions were initiated by the addition of 30 μL of a 0.2 mg/mL enzyme stock solution, and monitored at 385 nm. Initial rate fits to the absorbance data for the first 150 seconds of each reaction were used to determine reaction velocities.

β-trypsin = target: T2, β-trypsin (Bos taurus, UniProt P00760); type: biochemical, bovine
T2 construct: β-trypsin (bovine pancreatic); purchased Sigma (St. Louis, Mo.); host or cells: bovine pancreas
Experimental: as §1

elastase = target: T3, elastase (Sus scrofa, UniProt P00772); assay: elastase selectivity counter-screen; type: biochemical, porcine
T3 construct: purchased Sigma (St. Louis, Mo.); host or cells: porcine pancreas
Experimental: as §1

O=C(O)c1sccc1S(=O)(=O)Nc1ccc(Cl)cc1 [Compound 1, 3-[(4-chloroanilino)sulfonyl]thiophene-2-carboxylic acid]
selectivity for AmpC over chymotrypsin (α-chymotrypsin): at least sixty-fold; also recorded: greater than fifty-fold | selectivity for AmpC over trypsin (β-trypsin): at least two hundred-fold | selectivity for AmpC over elastase (elastase): at least two hundred-fold
